Test results as given in patent US20020160988A1 (priority 2001, published 2002).

Test system: rat brain muscarinic receptors (all muscarinic receptor subtypes)
Assay: Displacement of [^3H]NMS from rat brain
Details: L = 0.48 nM, KD = 0.2 nM, tested form: bromide

Work on `COc1ccc2cc(C(C)C(=O)OCCCCCCCC[n+]3cccc(OC(=O)N(C)C)c3)ccc2c1` (centres unmarked) yielded an IC50 of 23 µM and a Ki of 6.9 µM.
